Source: ChEMBL document CHEMBL3639135, “Dihydropyrimidin-2(1H)-one compounds as S-nitrosoglutathione reductase inhibitors” (2014)

Sequences of proteins named here, by UniProt entry; tags and fusion partners are left off. A change or cut given only in a name is not applied to a line headed by its entry.
UniProt P11766: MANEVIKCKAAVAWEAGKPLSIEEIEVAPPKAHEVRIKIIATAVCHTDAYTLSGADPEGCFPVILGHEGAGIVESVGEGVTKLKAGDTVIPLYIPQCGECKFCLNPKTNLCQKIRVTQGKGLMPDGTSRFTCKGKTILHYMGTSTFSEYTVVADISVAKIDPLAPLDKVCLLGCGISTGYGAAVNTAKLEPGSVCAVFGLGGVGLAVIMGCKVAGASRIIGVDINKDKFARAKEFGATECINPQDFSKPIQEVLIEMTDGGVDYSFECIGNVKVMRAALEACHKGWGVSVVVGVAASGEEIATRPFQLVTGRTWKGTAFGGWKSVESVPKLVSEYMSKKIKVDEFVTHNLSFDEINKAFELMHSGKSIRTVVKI

These compounds were tested against Alcohol dehydrogenase class-3 (Homo sapiens, UniProt P11766).
In the case of `CCOc1cc(C2NC(=O)N=C(c3ccccc3)C2c2ccccc2)cc([N+](=O)[O-])c1O` (stereo not drawn), the IC50 is reported as 29 nM. In the case of `CCOc1cc(C2NC(=O)N=C(c3ccccc3)C2c2ccsc2)cc([N+](=O)[O-])c1O` (stereo not drawn), the IC50 is reported as 19 nM. For `CCOc1cc(C2=NC(=O)NC(c3cccnc3)C2c2ccsc2)cc([N+](=O)[O-])c1O` (stereo not drawn), the IC50 was 1900 nM. For `CCOc1cc(C2=NC(=O)NC(c3ccn(C)n3)C2c2ccsc2)cc([N+](=O)[O-])c1O` (stereo not drawn), the IC50 was 35 nM. For `CCOc1cc([C@@H]2NC(=O)N=C(c3ccccc3)C2c2ccccc2)cc([N+](=O)[O-])c1O` (stereo partly drawn), the IC50 was 11 nM. `CCOc1cc([C@@H]2NC(=O)N=C(c3ccccc3)C2c2ccsc2)cc([N+](=O)[O-])c1O` (stereo partly drawn) showed an IC50 of 18 nM. In the case of `CCOc1cc([C@H]2NC(=O)N=C(c3ccccc3)C2c2ccsc2)cc([N+](=O)[O-])c1O` (stereo partly drawn), the IC50 is reported as 1820 nM. Work on `CCOc1cc([C@H]2NC(=O)N=C(c3ccccc3)C2c2ccccc2)cc([N+](=O)[O-])c1O` (stereo partly drawn) yielded an IC50 of 19700 nM.
